# Earlier results in PubChem BioAssay AID1811 (Shanghai Institute of Organic Chemistry, 2009).
# The list shows a part of the results. Active and inactive are the calls of the source. Where no limit is named, active and inactive come without a cut-off here.
# Tested on: steroid delta-isomerase
# Experiment: PubChem AID 1811
# Conditions: PDB complex binding affinities from literature
compound,measurement,value
C[C@]12CCc3c(ccc4cc(O)ccc34)[C@@H]1CCC2=O,outcome,active
